The values below are quoted from earlier work in patent publication US20250101026A1, “Functionalized Allopurinol Derivatives for Treatment of Alzheimer’s Disease” (BOARD OF REGENTS OF THE UNIVERSITY OF NEBRASKA, priority 2022, published 2025).

Amino acid sequences for entries named in this document (tags omitted).
UniProt Q99714, whole entry: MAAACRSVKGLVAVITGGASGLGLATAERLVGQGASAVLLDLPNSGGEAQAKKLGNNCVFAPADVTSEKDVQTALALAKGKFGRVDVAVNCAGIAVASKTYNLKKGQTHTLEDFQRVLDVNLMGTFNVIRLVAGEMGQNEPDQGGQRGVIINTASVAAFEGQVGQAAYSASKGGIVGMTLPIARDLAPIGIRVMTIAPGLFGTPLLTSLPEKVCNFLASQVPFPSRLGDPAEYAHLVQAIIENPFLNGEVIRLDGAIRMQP

This data set deals with ABAD (Homo sapiens, UniProt Q99714). The conditions noted are these: read-out: IC50 (ABAD, literature); cited from earlier work.

For orientation: IC50 means the concentration that gives 50% inhibition. `COC1=CC(=CNNC(=O)[C@H](C)Nc2cccc3ccccc23)C(=O)C=C1`: the IC50 was 4.4 µM.
